For the test, the system named is opiate receptors. Briefly: Test of Binding to the Opiate Receptor: saturation test with 3H-diprenorphine (Scatchard analysis). Particulars: read-out: KD value.

In the case of `COC12CCC3(CC1C(C)(C)O)C1Cc4ccc(O)c5c4C3(CCN1CC1CC1)C2O5` (stereo not shown), the equilibrium dissociation constant (Kd) stood at 0.51 nM.

The values above are taken from patent publication US5114935A, “Substituted 6-benzyl-2H-3,4,5,6-tetrahydro-(1,3)-oxazines” (Dr. Karl Thomae GmbH, priority 1989, dated 1992).
